{
  "source": "EPA's ToxRefDB 2",
  "key": {"rabbit [1]": {"test_system": "rabbit", "conditions": "Prenatal developmental toxicity study, new zealand white, Oral, Gavage/Intubation, dose end: 19 day, group: maternal"}, "rabbit [2]": {"test_system": "rabbit", "conditions": "Prenatal developmental toxicity study, other, Oral, Gavage/Intubation, dose end: 18 GD"}, "rat [3]": {"test_system": "rat", "conditions": "Prenatal developmental toxicity study, other, Oral, Gavage/Intubation, dose end: 19 GD"}, "dog": {"test_system": "dog", "conditions": "Chronic toxicity, beagle, Oral, Feed, dose end: 24 month"}, "mouse [4]": {"test_system": "mouse", "conditions": "Prenatal developmental toxicity study, Oral, Gavage/Intubation, dose end: 12 day"}, "mouse [5]": {"test_system": "mouse", "conditions": "Prenatal developmental toxicity study, Oral, Gavage/Intubation, dose end: 12 day", "remark": "listed apart in the source"}, "rat [6]": {"test_system": "rat", "conditions": "Sub-acute repeat dose toxicity; Oral; Gavage/Intubation; dose end: 7 day; group: systemic; systemic / clinical chemistry / globulins / globulins + systemic / clinical chemistry / bilirubin / total bilirubin + systemic / organ …"}, "rabbit [7]": {"test_system": "rabbit", "conditions": "Prenatal developmental toxicity study; new zealand white; Oral; Gavage/Intubation; dose end: 13 day; group: maternal; reproductive / reproductive performance / resorptions / resorptions + systemic / in life observation / clinical signs / hyperactivity + …"}, "rat [8]": {"test_system": "rat", "conditions": "Prenatal developmental toxicity study, sprague dawley, Oral, Gavage/Intubation, dose end: 12 day"}, "rat [9]": {"test_system": "rat", "conditions": "Prenatal developmental toxicity study, sprague dawley, Oral, Gavage/Intubation, dose end: 21 PND"}, "[10]": {"conditions": "systemic / in life observation / body weight / body weight + systemic / in life observation / clinical signs / body cold to touch + systemic…"}, "[11]": {"conditions": "group: developmental, developmental / developmental malformation / bone / [other] + developmental / developmental malformation / bone / absent + developmental / …"}, "[12]": {"conditions": "group: maternal, systemic / in life observation / mortality / mortality"}, "[13]": {"conditions": "group: maternal, systemic / in life observation / mortality / mortality + reproductive / reproductive performance / resorptions / resorptions + systemic / in…"}, "[14]": {"conditions": "group: developmental, systemic / in life observation / body weight / fetal weight"}, "[15]": {"conditions": "group: maternal, systemic / in life observation / clinical signs / anogenital staining"}, "[16]": {"conditions": "group: maternal, systemic / in life observation / clinical signs / anogenital staining + reproductive / reproductive performance / resorptions / resorptions…"}, "[17]": {"conditions": "group: cholinesterase, cholinesterase / cholinesterase / cholinesterase / cholinesterase (che)"}, "[18]": {"conditions": "group: systemic, systemic / clinical chemistry / alkaline phosphatase (alp/alk) / alkaline phosphatase (alp/alk) + systemic / clinical chemistry / aspartate …"}, "[19]": {"conditions": "group: maternal, systemic / in life observation / body weight / body weight + systemic / in life observation / body weight / body weight gain + systemic / in…"}},
  "data": [
    {"smiles": "CO/C=C(/C(=O)OC)c1ccccc1Oc1cc(Oc2ccccc2C#N)ncn1", "note": "[Azoxystrobin]", "values": [
      {"measurement": "LOAEL", "setting": "rabbit [1]; [10]", "value": "> 800", "unit": "mg/kg/day"},
      {"measurement": "NOAEL", "setting": "rabbit [1]; [10]", "value": "≥ 800", "unit": "mg/kg/day"},
      {"measurement": "LEL", "setting": "rabbit [1]; systemic / in life observation / body weight / body weight + systemic / in life observation / clinical signs / no feces + systemic / in life…", "value": 200, "unit": "mg/kg/day"}
    ]},
    {"smiles": "CCOc1nc(C(Cl)(Cl)Cl)ns1", "note": "[Etridiazole]", "values": [
      {"measurement": "LEL", "setting": "rabbit [2]; [11]", "value": 45, "unit": "mg/kg/day"},
      {"measurement": "LOAEL", "setting": "rabbit [2]; [11]", "value": 45, "unit": "mg/kg/day"},
      {"measurement": "NEL", "setting": "rabbit [2]; [11]", "value": 15, "unit": "mg/kg/day"},
      {"measurement": "NOAEL", "setting": "rabbit [2]; [11]", "value": 15, "unit": "mg/kg/day"},
      {"measurement": "LOAEL", "setting": "rabbit [2]; [12]", "value": 45, "unit": "mg/kg/day"},
      {"measurement": "LEL", "setting": "rabbit [2]; group: maternal, systemic / in life observation / mortality / mortality + reproductive / reproductive performance / resorptions / resorptions + reproductive…", "value": 45, "unit": "mg/kg/day"},
      {"measurement": "NEL", "setting": "rabbit [2]; [13]", "value": 15, "unit": "mg/kg/day"},
      {"measurement": "NOAEL", "setting": "rabbit [2]; [13]", "value": 15, "unit": "mg/kg/day"},
      {"measurement": "LEL", "setting": "rat [3]; [14]", "value": 75, "unit": "mg/kg/day"},
      {"measurement": "LOAEL", "setting": "rat [3]; [14]", "value": 75, "unit": "mg/kg/day"},
      {"measurement": "NEL", "setting": "rat [3]; [14]", "value": 30, "unit": "mg/kg/day"},
      {"measurement": "NOAEL", "setting": "rat [3]; [14]", "value": 30, "unit": "mg/kg/day"},
      {"measurement": "LEL", "setting": "rat [3]; [15]", "value": 30, "unit": "mg/kg/day"},
      {"measurement": "LOAEL", "setting": "rat [3]; [15]", "value": 30, "unit": "mg/kg/day"},
      {"measurement": "NEL", "setting": "rat [3]; [16]", "value": 10, "unit": "mg/kg/day"},
      {"measurement": "NOAEL", "setting": "rat [3]; [16]", "value": 10, "unit": "mg/kg/day"},
      {"measurement": "LEL", "setting": "dog; [17]", "value": 25, "unit": "mg/kg/day"},
      {"measurement": "LOAEL", "setting": "dog; [17]", "value": "> 25", "unit": "mg/kg/day"},
      {"measurement": "NEL", "setting": "dog; [17]", "value": 2.5, "unit": "mg/kg/day"},
      {"measurement": "NOAEL", "setting": "dog; [17]", "value": "≥ 25", "unit": "mg/kg/day"},
      {"measurement": "LEL", "setting": "dog; [18]", "value": 25, "unit": "mg/kg/day"},
      {"measurement": "LOAEL", "setting": "dog; [18]", "value": 25, "unit": "mg/kg/day"},
      {"measurement": "NEL", "setting": "dog; [18]", "value": 2.5, "unit": "mg/kg/day"},
      {"measurement": "NOAEL", "setting": "dog; [18]", "value": 2.5, "unit": "mg/kg/day"}
    ]},
    {"smiles": "CCc1nn(CCO)c(CC)c1Oc1cc(C#N)cc(C#N)c1", "note": "[Lersivirine]", "values": [
      {"measurement": "LEL", "setting": "mouse [4]; group: developmental, developmental / developmental malformation / bone / incomplete ossification + systemic / in life observation / body weight / fetal weight", "value": 350, "unit": "mg/kg/day"},
      {"measurement": "LEL", "setting": "mouse [4]; [12]", "value": 150, "unit": "mg/kg/day"},
      {"measurement": "NEL", "setting": "mouse [4]; [12]", "value": "< 150", "unit": "mg/kg/day"},
      {"measurement": "LEL", "setting": "mouse [5]; [14]", "value": 350, "unit": "mg/kg/day"},
      {"measurement": "LOAEL", "setting": "mouse [5]; [14]", "value": "> 700", "unit": "mg/kg/day"},
      {"measurement": "NOAEL", "setting": "mouse [5]; [14]", "value": "≥ 700", "unit": "mg/kg/day"},
      {"measurement": "LOAEL", "setting": "mouse [5]; [19]", "value": "> 700", "unit": "mg/kg/day"},
      {"measurement": "NEL", "setting": "mouse [5]; [19]", "value": 150, "unit": "mg/kg/day"},
      {"measurement": "NOAEL", "setting": "mouse [5]; [19]", "value": "≥ 700", "unit": "mg/kg/day"},
      {"measurement": "LEL", "setting": "mouse [5]; group: maternal, systemic / in life observation / food consumption / food consumption", "value": 350, "unit": "mg/kg/day"},
      {"measurement": "LEL", "setting": "rat [6]", "value": 150, "unit": "mg/kg/day"}
    ]},
    {"smiles": "CNCc1cc(F)ccc1Oc1ccc(Cl)c(Cl)c1", "values": [
      {"measurement": "LEL", "setting": "rabbit [7]", "value": 30, "unit": "mg/kg/day"},
      {"measurement": "LOAEL", "setting": "rabbit [7]", "value": "> 75", "unit": "mg/kg/day"},
      {"measurement": "NOAEL", "setting": "rabbit [7]", "value": "≥ 75", "unit": "mg/kg/day"},
      {"measurement": "LEL", "setting": "rat [8]; [14]", "value": 100, "unit": "mg/kg/day"},
      {"measurement": "LOAEL", "setting": "rat [8]; [14]", "value": "> 100", "unit": "mg/kg/day"},
      {"measurement": "NOAEL", "setting": "rat [8]; [14]", "value": "≥ 100", "unit": "mg/kg/day"},
      {"measurement": "LEL", "setting": "rat [8]; [19]", "value": 50, "unit": "mg/kg/day"},
      {"measurement": "LOAEL", "setting": "rat [8]; [19]", "value": "> 100", "unit": "mg/kg/day"},
      {"measurement": "NOAEL", "setting": "rat [8]; [19]", "value": "≥ 100", "unit": "mg/kg/day"}
    ]},
    {"smiles": "CC(Cc1ccc(C(C)(C)C)cc1)CN1C[C@@H](C)O[C@@H](C)C1", "note": "(stereo partly drawn) [(2R,6S)-Fenpropimorph]", "values": [
      {"measurement": "LOAEL", "setting": "rat [9]; group: developmental, developmental / offspring survival late / [other] / [other] + systemic / in life observation / clinical signs / grip strength", "value": 40, "unit": "mg/kg/day"},
      {"measurement": "LOAEL", "setting": "rat [9]; group: maternal, reproductive / reproductive performance / postimplantation loss / postimplantation loss + systemic / in life observation / body weight / …", "value": 40, "unit": "mg/kg/day"}
    ]}
  ]
}
